For the experiment, the target named is 5-hydroxytryptamine receptor 2C (Homo sapiens, UniProt P28335). In words: Antagonist activity at human recombinant 5-HT2C receptor assessed as inhibition of serotonin-induced inositol phosphate accumulation. The format is functional.

Chains of the proteins cited; added tags and fusions are not shown. Lines headed by an entry give the natural chain unless they say otherwise; changes in a name come on top.
UniProt P28335: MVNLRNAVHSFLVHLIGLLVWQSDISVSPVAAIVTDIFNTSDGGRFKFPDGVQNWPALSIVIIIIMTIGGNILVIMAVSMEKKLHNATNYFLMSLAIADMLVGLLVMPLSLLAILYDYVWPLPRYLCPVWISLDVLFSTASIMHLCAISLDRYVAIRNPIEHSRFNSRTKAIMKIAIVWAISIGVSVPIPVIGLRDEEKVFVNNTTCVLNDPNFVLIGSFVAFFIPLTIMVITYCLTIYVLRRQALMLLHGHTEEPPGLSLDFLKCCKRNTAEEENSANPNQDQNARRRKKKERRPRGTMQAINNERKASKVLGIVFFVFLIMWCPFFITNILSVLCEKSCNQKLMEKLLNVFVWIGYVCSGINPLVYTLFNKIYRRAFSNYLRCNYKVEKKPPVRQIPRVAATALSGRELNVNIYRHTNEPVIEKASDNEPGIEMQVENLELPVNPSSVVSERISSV

We go through 1 compound from ChEMBL document CHEMBL3286108, “Novel arylsulfonamide derivatives with 5-HT₆/5-HT₇ receptor antagonism targeting behavioral and psychological symptoms of dementia” (J Med Chem, 2014).

As for `Cn1ccc2cc3c(cc21)CCN3C(=O)Nc1cccnc1`, the IC50 was 9.4 nM.
